Data set [1] addresses T1, ORL1 receptor (Homo sapiens, UniProt P41146). In words: ORL1 binding: receptor binding assay with 3H-nociceptin/orphanin FQ, membranes from recombinant CHO-ORL1 cells. The conditions noted are these: 0.5 nM 3H-nociceptin/orphanin FQ; for Ki: read-out: Ki (ORL1) mean; for % inhibition (ORL1) [1 μM]: c=1 μM.
Data set [2] concerns the target T2, human μ opiate receptor (Homo sapiens, UniProt P35372). The data set can be described thus: μ binding: [3H]-naloxone displacement, membrane preparation of CHO-K1 cells. To be noted: 1 nmol/l [3H]-naloxone; for Ki: read-out: Ki (μ) mean, Cheng-Prusoff; for % inhibition (μ) [1 μM]: 1 μmol/l test substance.
Data set [3] can be described thus: Nephelometric solubility study (phosphate buffer pH 7.4). The conditions noted are these: for Solubility (pH 7): lower solubility limit, 10 mM phosphate buffer, 1% DMSO, 37° C., 2 h.
Data set [4] relates to pain latency (tail flick) in rats. The data set can be described thus: Analgesia in the tail flick test in rats. The conditions noted are these: intravenous, 20 minutes after administration.
Data set [5] has as its target T2, human μ opiate receptor. The conditions noted are these: read-out: Ki (μ) mean; data described in the literature (WO 04/043900); cited from earlier work.
Data set [6] concerns the target T1, ORL1 receptor. The conditions noted are these: read-out: Ki (ORL1) mean; data described in the literature (WO 04/043900); cited from earlier work.

Sequences of proteins named here, by UniProt entry; tags and fusion partners are left off. A change or cut given only in a name is not applied to a line headed by its entry.
UniProt P41146: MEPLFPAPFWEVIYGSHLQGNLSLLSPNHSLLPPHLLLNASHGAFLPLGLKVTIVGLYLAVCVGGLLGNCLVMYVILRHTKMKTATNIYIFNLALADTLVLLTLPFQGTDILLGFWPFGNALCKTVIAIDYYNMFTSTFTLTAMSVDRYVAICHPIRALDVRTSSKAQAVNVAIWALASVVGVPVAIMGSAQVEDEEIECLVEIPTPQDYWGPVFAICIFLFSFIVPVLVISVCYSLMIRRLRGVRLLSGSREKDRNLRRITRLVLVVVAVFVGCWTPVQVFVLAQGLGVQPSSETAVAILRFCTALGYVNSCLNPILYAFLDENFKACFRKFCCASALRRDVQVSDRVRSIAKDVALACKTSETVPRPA
UniProt P35372, whole entry, looked up: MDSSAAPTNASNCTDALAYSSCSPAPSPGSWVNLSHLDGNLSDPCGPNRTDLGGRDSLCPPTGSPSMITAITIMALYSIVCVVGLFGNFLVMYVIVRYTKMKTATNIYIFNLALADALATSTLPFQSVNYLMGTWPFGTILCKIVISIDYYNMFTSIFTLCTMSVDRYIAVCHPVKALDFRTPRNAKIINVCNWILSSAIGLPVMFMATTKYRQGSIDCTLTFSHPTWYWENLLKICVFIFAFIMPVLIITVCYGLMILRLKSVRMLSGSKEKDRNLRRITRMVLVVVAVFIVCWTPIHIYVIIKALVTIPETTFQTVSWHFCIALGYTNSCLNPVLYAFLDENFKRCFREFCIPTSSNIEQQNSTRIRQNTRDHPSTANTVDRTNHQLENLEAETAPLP

Usually Ki stands for the equilibrium dissociation constant of an inhibitor or competing ligand from its target.

The structures appear in SMILES notation. Where two headings read alike, the source gives them in different places.

Turning to `CN(C)C1(c2cccs2)CCC(C(O)COC2CCCCC2)CC1` (centres unmarked), the inhibition constant (Ki) at ORL1 receptor [1] turned out to be 45 nM; at human μ opiate receptor [2], 4.6 nM.
Turning to `CN(C)C1(c2ccccc2)CCC(C(O)Cc2ccccc2)CC1` (single isomer, unassigned), the inhibition constant Ki on ORL1 receptor [1] is 605 nM; on ORL1 receptor [1] (hydrochloride), 1.9 nM; on human μ opiate receptor [2], 2080 nM; at human μ opiate receptor [2] (hydrochloride), 3.2 nM. For the same compound, the “Solubility (pH 7)” value in data set [3] was determined as 100 μmol/l. Moreover, the “better solubility in aqueous media than the compound of Comparison Example 2” value in data set [3] (relative to Comparison Example 2) is listed as “about 10 fold”. Further, the “TF rat ED50 i.v.” value in data set [4] worked out at 0.0317 mg/kg.
Turning to `CN(C)C1(c2ccccc2)CCC(C(O)Cn2ccc3ccccc32)CC1` (centres unmarked), the inhibition constant (Ki) on ORL1 receptor [1] amounted to 4.1 nM; on human μ opiate receptor [2], 1 nM.
In the case of `CN(C)C1(c2ccccc2)CCC(C(O)Cc2ccc(F)cc2)CC1` (centres unmarked), at ORL1 receptor [1], the “% inhibition (ORL1) [1 μM]” value was 97%. For the same compound, the “% inhibition (μ) [1 μM]” value at human μ opiate receptor [2] is reported as 103%.
With `CN(C)C1(c2ccccc2)CCC(C(O)COC2CCCCC2)CC1` (centres unmarked), the Ki on ORL1 receptor [1] is 91 nM; at human μ opiate receptor [2], 12 nM.
On to `CN(C)C1(c2ccccc2)CCC2(OCCc3c2[nH]c2ccccc32)C(CO)C1` (racemic), for which the “% inhibition (ORL1) [1 μM]” value on ORL1 receptor [1] stood at 80%. The “Solubility (pH 7)” value in data set [3] is given as 10 μmol/l. In addition, the “% inhibition (μ) [1 μM]” value at human μ opiate receptor [2] worked out at 99%.
With `CN(C)C1(c2ccccc2)CCC(C(O)COc2ccccc2)CC1` (single isomer, unassigned), the values for the Ki at ORL1 receptor [1] and on human μ opiate receptor [2] were 30 nM and 6.5 nM, respectively.
As for `CN(C)C1(c2ccccc2)CCC(C(O)CN2Cc3ccccc3C2)CC1` (centres unmarked), the “% inhibition (ORL1) [1 μM]” value on ORL1 receptor [1] worked out at 71%. Moreover, the “% inhibition (μ) [1 μM]” value on human μ opiate receptor [2] is on record as 99%.
For the compound `COc1cccc(C2(N(C)C)CCC(C(O)Cc3ccccc3)CC2)c1` (centres unmarked), the values for the inhibitory constant (Ki) on ORL1 receptor [1] and on human μ opiate receptor [2] were 370 nM and 11.3 nM, respectively.
Taken in the same sequence, the figures for `CN(C)C1(c2ccccc2)CCC(C(O)COCc2ccccc2)CC1` (centres unmarked) were 130 nM and 10.7 nM.
Take `CCCCC1(N(C)C)CCC(C(O)Cc2ccccc2)CC1` (centres unmarked): the figures for the inhibition constant (Ki) on ORL1 receptor [1] and on human μ opiate receptor [2] were 400 nM and 11 nM, respectively.
Consider `CN(C)C1(c2cccc(F)c2)CCC(C(O)Cc2ccccc2)CC1` (centres unmarked), for which the “% inhibition (ORL1) [1 μM]” value at ORL1 receptor [1] stood at 93%. The “% inhibition (μ) [1 μM]” value at human μ opiate receptor [2] was 99%.
As for `CN(C)C1(c2ccccc2)CCC(C(O)C#Cc2cn(C(=O)OC(C)(C)C)c3ccccc23)CC1` (centres unmarked), the Ki is 86 nM at human μ opiate receptor [5] and 730 nM at ORL1 receptor [6].

The record behind these values is patent US8288406B2, “Hydroxymethylcyclohexylamines” (dated 2012).
